Test: Blood pressure after single oral dose in healthy male volunteers
Details: 10 mg orally, healthy subjects
Procedure: Ten healthy male volunteers were tested on two separate occasions one week apart. On both occasions their blood pressure was measured at baseline.

Q: For S-(−)-pindolol [(−) pindolol], which blood pressure is on record?
A: no alteration in blood pressure

Q: What about the blood pressure (listed as S(−)-pindolol) of the same substance?
A: no alteration in blood pressure in a majority of healthy subjects
